The compounds below were run against Prostaglandin G/H synthase 1 (Homo sapiens, UniProt P23219).

Protein sequences, listed by entry. Tags and fused reporters are not part of them.
UniProt P23219, whole entry: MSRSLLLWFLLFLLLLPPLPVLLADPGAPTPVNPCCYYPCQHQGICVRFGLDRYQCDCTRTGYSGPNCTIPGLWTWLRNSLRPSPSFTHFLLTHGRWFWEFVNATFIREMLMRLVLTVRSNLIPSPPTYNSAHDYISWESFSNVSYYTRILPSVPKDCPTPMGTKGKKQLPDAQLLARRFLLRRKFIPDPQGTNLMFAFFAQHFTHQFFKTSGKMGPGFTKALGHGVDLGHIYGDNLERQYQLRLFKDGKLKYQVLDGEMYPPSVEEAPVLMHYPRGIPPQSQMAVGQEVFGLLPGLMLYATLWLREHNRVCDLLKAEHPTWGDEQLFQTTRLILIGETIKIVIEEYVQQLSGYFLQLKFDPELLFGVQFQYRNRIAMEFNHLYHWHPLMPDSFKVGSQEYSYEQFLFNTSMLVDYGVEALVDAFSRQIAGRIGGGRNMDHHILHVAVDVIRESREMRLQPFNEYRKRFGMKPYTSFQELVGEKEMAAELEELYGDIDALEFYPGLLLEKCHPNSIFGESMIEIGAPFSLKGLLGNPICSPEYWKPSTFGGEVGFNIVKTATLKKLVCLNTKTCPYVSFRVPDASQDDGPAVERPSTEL

Ki [µM] | SMILES
0.075 | CC(C(=O)O)c1ccc(-c2ccccc2)c(F)c1 (racemic) [2-(2-fluoro-[1,1'-biphenyl-4-yl])propanoic acid]
2.4 | CN1C(C(=O)Nc2ccccn2)=C(O)c2ccccc2S1(=O)=O [NSC_4856]

SMILES | Ki [µM]
O=C(O)c1cccnc1Nc1cccc(C(F)(F)F)c1 [NSC_4488] | > 10

— BindingDB's records for doi:10.1073/pnas.96.13.7563 (St. Bartholomew's and The Royal London School of …, 1999)
